Experimental data as given in publication PMC11052790 (Clinical Pharmacokinetics, 2024).

By UniProt entry, the sequences of proteins in these tests, tags left out.
UniProt P33261, whole entry: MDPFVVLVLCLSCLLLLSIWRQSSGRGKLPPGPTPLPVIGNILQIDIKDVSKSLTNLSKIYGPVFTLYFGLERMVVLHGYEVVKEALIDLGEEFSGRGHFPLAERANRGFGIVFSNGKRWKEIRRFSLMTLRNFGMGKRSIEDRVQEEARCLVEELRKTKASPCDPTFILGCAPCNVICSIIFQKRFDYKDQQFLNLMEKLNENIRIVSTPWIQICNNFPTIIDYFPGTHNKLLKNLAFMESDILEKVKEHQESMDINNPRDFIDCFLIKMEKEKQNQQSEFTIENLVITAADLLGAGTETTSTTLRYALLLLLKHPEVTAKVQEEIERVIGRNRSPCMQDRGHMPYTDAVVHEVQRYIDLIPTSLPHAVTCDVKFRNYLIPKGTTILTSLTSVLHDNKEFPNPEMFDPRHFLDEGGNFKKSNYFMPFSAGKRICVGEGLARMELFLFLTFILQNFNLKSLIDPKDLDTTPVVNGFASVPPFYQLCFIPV

Target: CYP2C19 (Homo sapiens, UniProt P33261)
Conditions: days 4 and 5 of ritonavir treatment vs baseline

Reduction of molar AUC0–4 ratio of omeprazole and 5-OH-omeprazole: 32%
Compound: COc1ccc2[nH]c([S+]([O-])Cc3ncc(C)c(OC)c3C)nc2c1 (stereo not shown) [Omeprazole, omeprazole]
